{
  "sequences": {"note": "Amino acid sequences for entries named in this document (tags omitted). A change or cut given only in a name is not applied to a line headed by its entry. Residues count along the entry.", "UniProt P19821, 290-832 limits assumed": "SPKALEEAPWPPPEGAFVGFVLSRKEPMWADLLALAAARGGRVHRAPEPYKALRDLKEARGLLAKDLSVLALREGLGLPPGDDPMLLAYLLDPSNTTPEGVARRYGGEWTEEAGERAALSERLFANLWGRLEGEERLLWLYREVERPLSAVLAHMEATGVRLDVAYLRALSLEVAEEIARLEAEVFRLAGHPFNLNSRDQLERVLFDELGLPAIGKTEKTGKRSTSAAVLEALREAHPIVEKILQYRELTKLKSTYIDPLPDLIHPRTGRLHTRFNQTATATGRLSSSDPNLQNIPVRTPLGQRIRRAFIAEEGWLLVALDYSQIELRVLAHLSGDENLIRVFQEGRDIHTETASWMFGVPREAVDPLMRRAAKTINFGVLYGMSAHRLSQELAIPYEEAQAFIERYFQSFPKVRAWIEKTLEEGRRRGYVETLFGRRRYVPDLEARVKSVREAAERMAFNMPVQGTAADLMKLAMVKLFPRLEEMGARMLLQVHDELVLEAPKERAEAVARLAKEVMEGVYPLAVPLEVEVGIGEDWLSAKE", "UniProt P04994": "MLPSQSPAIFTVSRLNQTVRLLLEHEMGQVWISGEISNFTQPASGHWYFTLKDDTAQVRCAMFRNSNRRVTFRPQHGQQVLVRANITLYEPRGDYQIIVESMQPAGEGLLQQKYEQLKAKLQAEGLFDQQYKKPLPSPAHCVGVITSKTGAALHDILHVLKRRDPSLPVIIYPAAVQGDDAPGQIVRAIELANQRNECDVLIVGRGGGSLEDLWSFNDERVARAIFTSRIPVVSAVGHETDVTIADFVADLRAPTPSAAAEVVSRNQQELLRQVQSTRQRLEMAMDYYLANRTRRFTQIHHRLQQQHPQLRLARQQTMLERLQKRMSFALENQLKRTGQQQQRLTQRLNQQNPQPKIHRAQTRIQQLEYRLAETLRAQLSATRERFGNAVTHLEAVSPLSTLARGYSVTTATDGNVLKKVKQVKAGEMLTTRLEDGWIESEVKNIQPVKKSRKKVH"},
  "source": "patent US20110306503A1",
  "about": "“TEMPLATE-DEPENDENT NUCLEIC ACID POLYMERIZATION USING OLIGONUCLEOTIDE TRIPHOSPHATES BUILDING BLOCKS” (Yeda Research And Development Co. Ltd., priority 1999, published 2011)",
  "type_in_all_cases": "biochemical",
  "key": {"[1]": {"target": "T1, Taq DNA polymerase (Thermus aquaticus, UniProt P19821)", "T1 construct": "a truncated version of Taq DNA polymerase (543 amino acids of the C-terminus part); made in house; host or cells: E. coli JM109 (pTTQ vector)", "assay": "Labeled-primer extension assay", "protocol": "The oligonucleotides that were used for this assay are detailed in Table 4 before. The reactions of labeled-primer extension included: polymerization buffer (40 mM Tricine-KOH, pH 8.0; 16 mM KCl; 5 mM MgCl2 and 4 μg BSA), 1 pmol template, 0.2 pmol of the p201 primer (labeled at its 5′ with P^32-γ-ATP using T4 polynucleotide kinase), 1 μM of the indicated dNTP's and 50 μM of the indicated di- or trinucleotide triphosphates in a total volume of 20 μl. The reactions were incubated for 5 minutes at 45° C., then 5 units of Taq DNA polymerase (see Example 3 for details) were added, followed by 20 minutes at 72° C. The reactions were terminated with 15 μl of stop solution (95% formamide, 20 mM EDTA and 0.05% bromophenol blue). Three μl were then separated on Urea-PAGE, and the radiolabeled DNA-bands were detected by phosphoimaging."}, "[2]": {"target": "T2, Exo VII (Escherichia coli, UniProt P04994)", "T2 construct": "purchased GibcoBRL", "assay": "Test whether TpT3p inhibits Exo VII in step II of the polymerization assay", "conditions": "3 μM; reactants of step I without polymerase; absence of any PCR products", "protocol": "(§1) Exonuclease-digestion reaction (step II, FIG. 3) included 0.75 units of Exo VII (GibcoBRL), the supplier's buffer and 3 μl of the reaction of step I. Reactions were incubated for 30 minutes at 37° C. and then quenched on ice.\nIn order to test the possibility that TpT3p inhibits Exo VII in Step II of the polymerization assay, and therefore that the ss-DNA regions for subsequent amplification in step III were retained, an additional experiment performed containing the reactants of step I (but without polymerase added), and 3 μM TpT3p."}, "[3]": {"target": "T3, truncated version of Taq DNA polymerase (Thermus aquaticus, UniProt P19821)", "T3 construct": "a truncated version of Taq DNA polymerase (543 amino acids of the C-terminus part); made in house; host or cells: E. coli JM109 (pTTQ vector)", "assay": "Polymerization assay (template extension, Exo VII digestion, PCR amplification)", "protocol": "Oligonucleotides (Table 2) used for the polymerization assay were purified by electrophoresis on Urea-PAGE. For the polymerization assay, a truncated version of Taq DNA polymerase (543 amino acids of the C-terminus part), was cloned in the pTTQ vector (Stark, 1987), and expressed (in E. coli JM109) and purified as described (Lawyer et al., 1993).\nTemplate-extension reaction (step I, FIG. 3) includes a polymerization buffer (40 mM Tricine-KOH, pH 8.0; 16 mM KCl; 3.5 mM MgCl2 and 4 μg BSA), 1 pmol T1 template, 1 pmol T7 primer, 20 nM of each of the four dNTP's and 5 units of DNA polymerase in total volume of 20 μl. Where indicated, 3 μM TpT3p replaced the dTTP in the reaction mix. Reaction was incubated for 2 min at 94° C., 5 minutes at 55° C., 30 seconds at 60° C., 30 seconds at 65° C., and then 10 minutes at 72° C.\nas §1\nPCR amplification (step III, FIG. 3) included the above described polymerization buffer, additional 2 μg BSA, 1 μl of the reaction of step II, 0.1 mM dNTP's, 0.5 pmol T2 template, and 5 pmol of both, T7 and B primers. The reactions, in 20 μl, were performed in glass capillaries on RapidCycler (Ideho Technology), using thermal steps of: 1 minute at 94° C., followed by 30 cycles of 5 seconds at 94° C., 15 seconds at 50° C.; and 25 seconds at 72° C. The PCR products were separated on 1.4% agarose gels, and visualized by UV light following ethidium bromide staining.\nIncorporation of TpT3p by template-dependent polymerization was tested in a very sensitive assay of three steps, as detailed in Example 3 and FIG. 3, and exemplified in FIG. 4. In step I, a template containing three (T1-3), four (T1-4) or five (T1-5) runs of deoxyadenosine (A), followed by a non-A containing region was extended from a specific oligonucleotide primer (T7) in the presence of a DNA polymerase and the nucleotide mixtures described in Example 3. In step II, the polymerization products were treated by a single-strand specific exonuclease, so that non-extended single-strand regions in T1 were removed. Only products that were extended in step I, but not digested in step II, could be amplified in step III in the presence of oligonucleotides T7, B and T2. This assay is sensitive enough to identify even a small amount of molecules that were extended in step I, and can be used as a general means to amplify the capacity of polymerases to introduce a nucleotide analog by template extension."}},
  "data": [
    {"substance": "thymidylyl-3′-5′-thymidine dinucleotide triphosphate (DNA TT; DNA, phosphodiester; triphosphate, position not given here, further chemistry not fully specified) [TpT3p]", "values": [
      {"measurement": "template-dependent incorporation in a mix with dCTP and dATP", "setting": "[1]; template T24, FIG. 7 lanes 4 and 5", "result": "utilized"},
      {"measurement": "incorporation of dinucleotide compared with trinucleotide", "setting": "[1]; template T24, with dCTP and dATP, FIG. 7 lanes 4 and 5", "result": "incorporated much better than the trinucleotide"},
      {"measurement": "template-dependent incorporation onto 3′ end of labeled primer p201", "setting": "[1]; templates T80 and T81, 50 μM dinucleotide triphosphates, FIG. 6 lanes 3-7", "result": "correct incorporation"},
      {"measurement": "efficiency of incorporation compared to the natural dNTP's", "setting": "[1]; templates T80 and T81, FIG. 6 lanes 3-7 vs lane 2", "result": "lower efficiency"},
      {"measurement": "inhibition of Exo VII", "setting": "[2]", "result": "not inhibited"},
      {"measurement": "PCR-amplification products in step III (template-dependent incorporation), template with even A-run", "setting": "[3]; 3 μM TpT3p replaced dTTP in step I, template T1-4 (four A's)", "result": "only with template T1-4"},
      {"measurement": "PCR-amplification products in step III (template-dependent incorporation), templates with odd A-runs", "setting": "[3]; 3 μM TpT3p replaced dTTP in step I, templates T1-3 and T1-5", "result": "no PCR products"},
      {"measurement": "concentration that support primer extension", "setting": "[3]; albeit with lower yield", "result": 50, "unit": "nM"},
      {"measurement": "concentration supporting primer extension relative to that found for dTTP", "setting": "[3]; fold higher than dTTP", "result": "more than 100 fold"}
    ]}
  ]
}
